What was measured:
[1] = molecular target: Cloned Canine 5-HT1D-1 (RDC4) (Canis lupus familiaris, UniProt P11614); experiment: [3H]5-HT binding to cloned canine 5-HT1D-1 (RDC4) in transfected cell membranes; settings: read-out: Estimated equilibrium dissociation constants (Ki values); [3H]5-HT displacement; membranes of LM (tk−) cells stably transfected; Cheng-Prusoff
Cloned Human 5-HT1D-1 = Cloned Human 5-HT1D-1 (Homo sapiens, UniProt P28221); experiment: [3H]5-HT binding to cloned human 5-HT1D-1 (gene 8-30-84) in transfected cell membranes; settings: read-out: Estimated equilibrium dissociation constants (Ki values); [3H]5-HT displacement; membranes of LM (tk−) cells stably transfected; Cheng-Prusoff
Cloned Human 5-HT1D-2 = Cloned Human 5-HT1D-2 (Homo sapiens, UniProt P28222); experiment: [3H]5-HT binding to cloned human 5-HT1D-2 (gene 11) in transfected cell membranes; settings: read-out: Estimated equilibrium dissociation constants (Ki values)

By UniProt entry, the sequences of proteins in these tests, tags left out. Where a name states a change or a piece, a line headed by the entry shows the natural chain unless it says otherwise.
UniProt P11614, whole entry: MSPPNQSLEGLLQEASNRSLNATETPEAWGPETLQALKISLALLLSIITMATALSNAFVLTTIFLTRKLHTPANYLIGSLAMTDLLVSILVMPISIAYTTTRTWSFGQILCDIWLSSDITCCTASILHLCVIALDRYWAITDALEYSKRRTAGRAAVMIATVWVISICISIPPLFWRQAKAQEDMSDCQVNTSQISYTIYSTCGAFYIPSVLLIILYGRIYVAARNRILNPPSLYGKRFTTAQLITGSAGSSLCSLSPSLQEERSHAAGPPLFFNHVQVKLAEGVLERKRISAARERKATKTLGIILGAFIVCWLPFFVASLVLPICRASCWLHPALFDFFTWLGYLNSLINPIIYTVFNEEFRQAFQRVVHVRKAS
UniProt P28221: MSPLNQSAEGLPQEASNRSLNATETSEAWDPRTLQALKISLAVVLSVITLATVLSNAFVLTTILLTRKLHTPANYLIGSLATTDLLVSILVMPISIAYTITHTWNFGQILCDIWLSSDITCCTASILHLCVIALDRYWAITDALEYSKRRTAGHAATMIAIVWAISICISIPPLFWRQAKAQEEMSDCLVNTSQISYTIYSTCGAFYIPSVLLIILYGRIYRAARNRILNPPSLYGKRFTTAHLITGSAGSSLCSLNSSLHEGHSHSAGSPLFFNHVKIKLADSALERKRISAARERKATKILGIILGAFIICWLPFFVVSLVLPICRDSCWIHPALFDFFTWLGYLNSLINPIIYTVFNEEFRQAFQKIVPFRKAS
UniProt P28222, whole entry: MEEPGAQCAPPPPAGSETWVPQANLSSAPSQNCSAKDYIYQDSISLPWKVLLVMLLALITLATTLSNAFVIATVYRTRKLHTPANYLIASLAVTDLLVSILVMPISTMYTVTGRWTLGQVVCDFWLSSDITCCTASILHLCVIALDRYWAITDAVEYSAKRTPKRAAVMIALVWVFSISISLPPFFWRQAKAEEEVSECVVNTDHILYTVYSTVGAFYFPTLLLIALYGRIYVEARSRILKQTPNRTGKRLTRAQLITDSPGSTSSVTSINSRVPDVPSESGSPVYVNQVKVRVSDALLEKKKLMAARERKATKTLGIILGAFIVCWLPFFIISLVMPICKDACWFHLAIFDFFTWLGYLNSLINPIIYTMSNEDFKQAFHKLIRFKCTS

COc1ccc2[nH]cc(CCN)c2c1 [5-Methoxytryptamine]
Ki [1]: 31 ± 11 nM

COc1ccc2[nH]cc(CCN(C)C)c2c1 [5-methoxy-DMT]
Ki (Cloned Human 5-HT1D-1): 4.4 ± 0.6 nM

Corynanthine
Ki (Cloned Human 5-HT1D-2): > 10000 nM
